“Also recorded” adds a separate entry of the source.
Tests used:
RSV = RSV plaque reduction assay in HEp-2 cells; settings: CC50 HEp-2 / anti-RSV IC50
HEp-2 cells = experiment: Microscopic recording of cytostatic activity in compound-treated HEp-2 cells; settings: microscopy, PCP poor cell proliferation, ACS altered cell shape, PCS poor cell staining, concentration(s) at which seen in brackets

NC(=O)c1ncn([C@@H]2O[C@H](CO)[C@@H](O)[C@H]2O)n1 [ribavirin, reference compound]
SI (CC50/IC50) (RSV): >9.4
cytotoxicity: cytostatic activity (HEp-2 cells): cytostatic activity at 100.0 μM; also recorded: PCP (100 μM)

Reference: publication PMC11061832, “Antiviral Rotenoids and Isoflavones Isolated from Millettiaoblata ssp. teitensis” (Journal of Natural Products, 2024)
